For test [1], the target named is T1, Protein-arginine deiminase type-4 (Homo sapiens, UniProt Q9UM07). As to the kind of experiment: Inhibition of PAD4 by ABPP-based assay.
For test [2], the target named is T1, Protein-arginine deiminase type-4. Briefly: Inhibition of PAD4 measured by slope plot of Lineweaver-Burke analyses.

Sequences of proteins named here, by UniProt entry; tags and fusion partners are left off.
UniProt Q9UM07, whole entry: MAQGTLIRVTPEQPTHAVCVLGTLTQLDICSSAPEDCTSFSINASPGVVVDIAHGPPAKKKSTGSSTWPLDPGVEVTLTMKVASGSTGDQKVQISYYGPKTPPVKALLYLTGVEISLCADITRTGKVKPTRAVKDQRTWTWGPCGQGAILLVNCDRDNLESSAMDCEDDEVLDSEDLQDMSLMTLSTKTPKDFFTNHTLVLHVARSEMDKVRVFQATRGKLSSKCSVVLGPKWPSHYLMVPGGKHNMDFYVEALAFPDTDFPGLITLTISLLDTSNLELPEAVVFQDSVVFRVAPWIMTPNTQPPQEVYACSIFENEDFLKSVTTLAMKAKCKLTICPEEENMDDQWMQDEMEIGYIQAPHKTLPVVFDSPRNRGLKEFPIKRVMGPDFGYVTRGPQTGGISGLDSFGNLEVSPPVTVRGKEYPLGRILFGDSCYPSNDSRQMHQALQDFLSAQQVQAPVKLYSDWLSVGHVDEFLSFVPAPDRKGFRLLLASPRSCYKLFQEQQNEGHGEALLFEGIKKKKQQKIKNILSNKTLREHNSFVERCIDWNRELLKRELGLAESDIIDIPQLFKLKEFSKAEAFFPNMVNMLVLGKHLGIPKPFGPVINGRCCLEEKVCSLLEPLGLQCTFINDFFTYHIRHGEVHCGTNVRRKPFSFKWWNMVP

Each structure is given as a SMILES string. pIC50, pKi: −log10 of the molar value.

For orientation: pIC50 means the negative decadic logarithm of the IC50, by convention in mol/L. High values mean a low IC50, low ones a high IC50. Usually pKi stands for the Ki on a negative log10 scale, so that one unit is a factor of ten. Lower therefore signals a large Ki.

In test [1], `C[C@H]1c2cccc(O)c2C(=O)C2=C(O)C3(O)C(=O)C(C(N)=O)=C(O)[C@@H](N(C)C)[C@@H]3[C@@H](O)[C@@H]21` (single isomer, unassigned) [DOXYCYCLINE] gave a negative logarithm of the IC50 (pIC50) of 3.07. Take `[H]/N=C(/N)N[C@H]1[C@H](O)[C@@H](O)[C@H](O[C@@H]2O[C@@H](C)[C@](O)(C=O)[C@H]2O[C@@H]2O[C@@H](CO)[C@H](O)[C@@H](O)[C@@H]2NC)[C@@H](N/C(N)=N\[H])[C@@H]1O` (stereo in doubt) [STREPTOMYCIN]: in test [1], the pIC50 is 2.74. In test [2], the pKi was 3.25. In test [2], `CN(C)[C@@H]1C(O)=C(C(N)=O)C(=O)[C@@]2(O)C(O)=C3C(=O)c4c(O)ccc(Cl)c4[C@@](C)(O)[C@H]3C[C@@H]12` [CHLORTETRACYCLINE] had a pKi of 3.27.

(Values after ChEMBL document CHEMBL1143172, “Profiling Protein Arginine Deiminase 4 (PAD4): a novel screen to identify PAD4 inhibitors” (Bioorg Med Chem, 2008).)
